The conditions of experiment [1]: in vivo.

On to `CCOc1ccccc1OC(c1ccccc1)C1CNCCO1` (centres unmarked) [Reboxetine], for which, in experiment [1], the antireserpine activity entry is “potent antireserpine activity”. The “desensitization of J-adrenergic receptor function” value in the experiment with J-adrenergic receptor was “ability to desensitize J-adrenergic receptor function”.

Values taken from patent US6586427B2, “Treatments for nervous disorders” (Pharmacia & Upjohn Company, priority 1998, dated 2003).
